Literature values in patent US10627374B2, “LC-MS configuration for purification and detection of analytes having a broad range of hydrophobicites” (COHESIVE TECHNOLOGIES INC., priority 2010, dated 2020).

## CCC(=O)N(c1ccccc1)C1CCN(CCc2ccccc2)CC1
Table 1
  logP: 4.59
Table 2
  logP: 4.59

Like-named read-outs stand apart in the source and are kept apart here. Some compounds may have been tested in ways that are not shown here.
